{"source": "patent US8557308B2", "about": "“Andrographis paniculata extract” (Nutrition Science Partners Limited, priority 2007, dated 2013)", "tested_on": "mildly to moderately active ulcerative colitis", "assay": "Randomized, double-dummy, active controlled 8-week clinical trial in ulcerative colitis", "format": "in vivo, human", "experimental": "120 patients with colonoscopy-confirmed mildly to moderately active ulcerative colitis were assigned to two groups (60 patients/group). […] All other medications were excluded. The therapeutic effects were assessed biweekly using a scale similar to the partial Mayo Scoring System, and the clinical symptom score reduction (≧50% reduction in symptoms) was calculated. Scores were then retrospectively calculated using the standard partial Mayo scores (PMS), clinical response (improvement ≧2 points or final score of 0) and remission (≦1 PMS score at week 8). Colonoscopies at the beginning and at the end of treatment were rated with a modified Baron score, and biopsies taken during colonoscopy were graded histologically with a scale of 0-3."}
{"smiles": "Nc1ccc(O)c(C(=O)O)c1", "note": "[Etiasa, 5-amino-2-hydroxybenzoic acid]", "values": [{"measurement": "patients showing decrease of histological inflammation scores by 25-50%", "setting": "biopsies, week 8, number of evaluated patients", "result": "6 of the 15"}, {"measurement": "patients entering with elevated C-reactive protein levels that showed normal levels", "setting": "week 8", "result": "4/6"}]}
